System: secretion of ACTH stimulated by oCRF in cultured rat pituitary cells
Experiment: Blocking of oCRF-stimulated ACTH and β-endorphin secretion by cultured rat pituitary cells
Assay type: cell-based
Details: result in words
Method: The effectiveness of synthetic CRF antagonists to block the secretion of ACTH and β-endorphin by cultured rat pituitary cells is measured using the procedure as generally set forth in Vale et al., Endocrinology, 91, 562 (1972).

Row | SMILES | inhibition of the secretion of ACTH and β-END-LI
1 | CCCC[C@H](NC(=O)[C@H](CC(C)C)NC(=O)[C@H](CCCCN)NC(=O)[C@H](CCCNC(=N)N)NC(=O)[C@H](CC(N)=O)NC(=O)[C@H](CO)NC(=O)[C@H](Cc1c[nH]cn1)NC(=O)[C@H](C)NC(=O)[C@H](CCC(N)=O)NC(=O)[C@H](CCC(N)=O)NC(=O)[C@H](C)NC(=O)[C@H](CC(C)C)NC(=O)[C@H](CCC(N)=O)NC(=O)[C@H](CC(=O)O)NC(=O)[C@H](C)NC(=O)[C@H](CCCCN)NC(=O)[C@@H](NC(=O)[C@H](CCCC)NC(=O)[C@H](CCC(=O)O)NC(=O)[C@H](CC(C)C)NC(=O)[C@@H](NC(=O)[C@H](CCC(=O)O)NC(=O)[C@H](CCCNC(=N)N)NC(=O)[C@H](CC(C)C)NC(=O)[C@H](CC(C)C)NC(=O)[C@H](Cc1c[nH]cn1)NC(=O)[C@H](N)Cc1ccccc1)C(C)C)[C@@H](C)O)C(=O)N[C@@H](CC(=O)O)C(=O)N[C@H](C(=O)N[C@@H](C)C(N)=O)[C@@H](C)CC [XXXVI, [D-Phe^12, Nle^21,38]-oCRF(12-41)] | inhibits the secretion of ACTH and β-END-LI
2 | CCCC[C@H](NC(=O)[C@H](CC(C)C)NC(=O)[C@H](CCCNC(=N)N)NC(=O)[C@H](CCCNC(=N)N)NC(=O)[C@H](CC(N)=O)NC(=O)[C@H](CO)NC(=O)[C@H](Cc1c[nH]cn1)NC(=O)[C@H](C)NC(=O)[C@H](CCC(N)=O)NC(=O)[C@H](CCC(N)=O)NC(=O)[C@H](C)NC(=O)[C@H](CC(C)C)NC(=O)[C@H](CCC(N)=O)NC(=O)[C@H](CC(=O)O)NC(=O)[C@H](C)NC(=O)[C@H](CCCCN)NC(=O)[C@@H](NC(=O)[C@H](CCCC)NC(=O)[C@H](CCC(=O)O)NC(=O)[C@H](CC(C)C)NC(=O)[C@@H](NC(=O)[C@H](CCC(=O)O)NC(=O)[C@H](CCCNC(=N)N)NC(=O)[C@H](CC(C)C)NC(=O)[C@H](CC(C)C)NC(=O)[C@H](Cc1c[nH]cn1)NC(=O)[C@H](N)Cc1ccccc1)C(C)C)[C@@H](C)O)C(=O)N[C@@H](CC(=O)O)C(=O)N[C@H](C(=O)N[C@@H](C)C(N)=O)[C@@H](C)CC [XXXVII, [D-Phe^12, Nle^21,38, Arg^36]-oCRF (12-41)] | inhibits the secretion of ACTH and β-END-LI
